According to paper PMC10160475, “Biological evaluation and in silico studies of novel compounds as potent TAAR1 agonists that could be used in schizophrenia treatment” (Frontiers in Pharmacology, 2023):

Tested on: catalepsy
Assay: Catalepsy assay (bar test)
Format: in vivo, C57BI/6J mice
Details: risperidone 1, 5 mg/kg p.o., 30 and 90 min after administration
Method: Twenty-four male C57BI/6J mice were divided randomly into four groups. Mice were placed in a room 1 h before testing. They were administered vehicle, risperidone (1 or 5 mg/kg, p.o.; 0.1 ml/10 g), 50A (100 mg/kg, p.o.; 0.1 ml/10 g), or 50B (100 mg/kg, p.o.; 0.1 ml/10 g). The front paws of mice were placed on a horizontal metal bar raised 2 inches above a Plexiglas™ platform 30 min and 90 min after administration. The time the front paws of mice were placed on the platform was recorded at ≤30 s per trial. Each test was repeated three times.

Cc1nc2n(c(=O)c1CCN1CCC(c3noc4cc(F)ccc34)CC1)CCCC2 [risperidone, reference compound]
Time mice spent holding bars (catalepsy): increased the time mice spent holding bars significantly
